Source: US20200261490

Molecular target: recombinant human stanniocalcin 1, C-terminally myc-his-tagged

B1: recombinant human PAPP-A (pregnancy-associated plasma protein-A, pappalysin-1) (protein)
chain: EARGATEEPSPPSRALYFSGRGEQLRLRADLELPRDAFTLQVWLRAEGGQRSPAVITGLYDKCSYISRDRGWVVGIHTISDQDNKDPRYFFSLKTDRARQVTTINAHRSYLPGQWVYLAATYDGQFMKLYVNGAQVATSGEQVGGIFSPLTQKCKVLMLGGSALNHNYRGYIEHFSLWKVARTQREILSDMETHGAHTALPQLLLQENWDNVKHAWSPMKDGSSPKVEFSNAHGFLLDTSLEPPLCGQTLCDNTEVIASYNQLSSFRQPKVVRYRVVNLYEDDHKNPTVTREQVDFQHHQLAEAFKQYNISWELDVLEVSNSSLRRRLILANCDISKIGDENCDPECNHTLTGHDGGDCRHLRHPAFVKKQHNGVCDMDCNYERFNFDGGECCDPEITNVTQTCFDPDSPHRAYLDVNELKNILKLDGSTHLNIFFAKSSEEELAGVATWPWDKEALMHLGGIVLNPSFYGMPGHTHTMIHEIGHSLGLYHVFRGISEIQSCSDPCMETEPSFETGDLCNDTNPAPKHKSCGDPGPGNDTCGFHSFFNTPYNNFMSYADDDCTDSFTPNQVARMHCYLDLVYQGWQPSRKPAPVALAPQVLGHTTDSVTLEWFPPIDGHFFERELGSACHLCLEGRILVQYASNASSPMPCSPSGHWSPREAEGHPDVEQPCKSSVRTWSPNSAVNPHTVPPACPEPQGCYLELEFLYPLVPESLTIWVTFVSTDWDSSGAVNDIKLLAVSGKNISLGPQNVFCDVPLTIRLWDVGEEVYGIQIYTLDEHLEIDAAMLTSTADTPLCLQCKPLKYKVVRDPPLQMDVASILHLNRKFVDMDLNLGSVYQYWVITISGTEESEPSPAVTYIHGSGYCGDGIIQKDQGEQCDDMNKINGDGCSLFCRQEVSFNCIDEPSRCYFHDGDGVCEEFEQKTSIKDCGVYTPQGFLDQWASNASVSHQDQQCPGWVIIGQPAASQVCRTKVIDLSEGISQHAWYPCTISYPYSQLAQTTFWLRAYFSQPMVAAAVIVHLVTDGTYYGDQKQETISVQLLDTKDQSHDLGLHVLSCRNNPLIIPVVHDLSQPFYHSQAVRVSFSSPLVAISGVALRSFDNFDPVTLSSCQRGETYSPAEQSCVHFACEKTDCPELAVENASLNCSSSDRYHGAQCTVSCRTGYVLQIRRDDELIKSQTGPSVTVTCTEGKWNKQVACEPVDCSIPDHHQVYAASFSCPEGTTFGSQCSFQCRHPAQLKGNNSLLTCMEDGLWSFPEALCELMCLAPPPVPNADLQTARCRENKHKVGSFCKYKCKPGYHVPGSSRKSKKRAFKTQCTQDGSWQEGACVPVTCDPPPPKFHGLYQCTNGFQFNSECRIKCEDSDASQGLGSNVIHCRKDGTWNGSFHVCQEMQGQCSVPNELNSNLKLQCPDGYAIGSECATSCLDHNSESIILPMNVTVRDIPHWLNPTRVERVVCTAGLKWYPHPALIHCVKGCEPFMGDNYCDAINNRAFCNYDGGDCCTSTVKTKKVTPFPMSCDLQGDCACRDPQAQEHSRKDLRGYSHG
% of total 125I-IGFBP-4 cleaved by PAPP-A after 120 min: only ˜15% of the total IGFBP-4 was cleaved when STC1 was present
